Test results reported in patent US9145373B2, “Certain kynurenine-3-monooxygenase inhibitors, pharmaceutical compositions, and methods of use thereof” (CHDI FOUNDATION, INC., priority 2008, dated 2015).
Structures can show the parent of a compound that is named as a salt.

The chains behind the UniProt entries cited, without tags or fusion partners. Where a name states a change or a piece, a line headed by the entry shows the natural chain unless it says otherwise.
UniProt Q91WN4: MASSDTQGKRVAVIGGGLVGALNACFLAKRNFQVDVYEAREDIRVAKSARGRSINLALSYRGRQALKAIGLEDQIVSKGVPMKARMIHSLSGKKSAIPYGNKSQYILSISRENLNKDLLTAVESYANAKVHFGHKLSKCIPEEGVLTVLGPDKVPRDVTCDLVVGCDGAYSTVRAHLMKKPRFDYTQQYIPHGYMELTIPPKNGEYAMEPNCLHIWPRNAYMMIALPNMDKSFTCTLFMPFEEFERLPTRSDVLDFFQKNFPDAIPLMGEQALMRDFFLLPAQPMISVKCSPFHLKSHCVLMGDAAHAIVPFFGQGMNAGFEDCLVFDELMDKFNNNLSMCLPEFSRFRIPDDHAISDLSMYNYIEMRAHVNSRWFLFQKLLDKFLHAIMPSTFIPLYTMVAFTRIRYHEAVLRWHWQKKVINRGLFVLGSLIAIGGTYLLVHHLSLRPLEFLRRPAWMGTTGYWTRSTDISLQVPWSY

Molecular target: T1, KMO mouse enzyme (Mus musculus, UniProt Q91WN4)
T1 construct: KMO enzyme prepared at Evotec from mouse liver (4-6 weeks old) via mitochondria isolation; from tissue; host or cells: mouse liver (4-6 weeks old), mitochondria isolation, prepared at Evotec
Experiment: KMO mouse enzyme assay: L-Kynurenine hydroxylation to 3-Hydroxy-Kynurenine monitored by LC/MS (MRM)
Type: biochemical
Details: compound at 10 μM, KMO enzyme from mouse liver mitochondria
Description: A method of monitoring L-Kynurenine (KYN) hydroxylation to form 3-Hydroxy-Kynurenine (3OH-KYN) by LC/MS is described. Product is quantified by multiple reaction monitoring (MRM method).
• Compound: Stock concentrations: 10 mM in 100% DMSO • Enzyme: KMO enzyme prepared at Evotec from mouse liver (4-6 weeks old) via mitochondria isolation as described in the literature • Substrate: L-Kynurenine (Sigma: Cat# K3750, stock concentration: 10 mM in 100 mM potassium phosphate buffer, pH 7.4) Assay Conditions: […]

Row | INH.Mouse @ 10 μM | inhibition at 10 µM (read-out: INH.Mouse @ 10 μM) [%] | SMILES
1 | 105.5 |  | O=C(O)c1cc(-c2ccc(Cl)c(Cl)c2)ncn1 [6-(3,4-Dichloro-phenyl)-pyrimidine-4-carboxylic acid]
2 |  | 100 | O=C(O)c1cc(-c2ccc(Cl)c(Cl)c2)ncn1 [6-(3,4-dichloro-phenyl)-pyrimidine-4-carboxylic acid sodium salt]
